The source of these data is PubChem BioAssay AID1381 (University of Pittsburgh Molecular Library Screening Center, 2008).

SMILES strings stand for the structures. The list shows a part of the results, in another mix than the full data. Calls of active or inactive are those of the source.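 Rule for the calls: active = plate z-score of nuclear minus cytoplasmic receptor signal below a set negative limit, without overly bright fluorescence or cell loss (cut at about -3.5 in these data, passing the limit was not always enough); inactive = the rest, inconclusive results apart.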

The nature of the assay: inhibitors of GR-EGFP nuclear translocation, primary screen, dynein cargo transport inhibitor project, imaging, high-content, 3617.4 mouse cells (AID 1381). The conditions noted are these: active compounds read low, stimulated with dexamethasone, 1 µM.

Consider `O=P(Nc1nc2ccc(Cl)cc2s1)(c1ccccc1)c1ccccc1`, for which, under “at 20 µM unless noted”, the z-score is inactive: -0.412.
The same measure, in the same setting: the result for `O=C(O)c1ccccc1[As](=O)(O)O` reads inactive: 0.887; that for `CC(=O)Nc1ccc([As](=O)(O)O)cc1`, inactive: -0.193.
Same read-out and setting: the result for `COc1ccc(OP(C)(=O)Nc2ccccc2Br)cc1` (stereo not drawn) reads inactive: 0.977.
Take `CCOP(=O)(Nc1ccccc1)OCC`: the z-score was inactive: 2.21 (at 20 µM) and inactive: -0.769 (at 50 µM).
Consider `Cc1cc(SC(NC(=O)c2ccc(F)cc2)C(Cl)(Cl)Cl)ncn1` (stereo not drawn), for which the z-score (at 20 µM unless noted) was inactive: -0.0394.
With `Cc1ccc(NP(=O)(Oc2ccccc2F)Oc2ccccc2F)nc1`, the z-score (at 20 µM unless noted) is inactive: 0.447.
`COc1ccccc1OP(C)(=O)Nc1ccc(C)c(C)c1` (stereo not drawn): for the setting “at 20 µM unless noted”, the z-score was inactive: -0.163.
The same measure, in the same setting: the result for `CCC(=O)N1C2C3N(C(=O)CC)C1C1N(C(=O)CC)C(C(N1C(=O)CC)N3C(=O)CC)N2C(=O)CC` reads inactive: -1.08.
Consider `CCN(CC)CCCOC(=O)C(O)(c1ccccc1)C1CCCCC1` (stereo not drawn), for which the z-score (at 20 µM unless noted) was inactive: 0.297 [at 50 µM].
Regarding `COC(=O)c1cc2c(s1)N=C(c1ccccc1)N(C)P2(=O)N1CCOCC1` (stereo not drawn), under “at 20 µM unless noted”, the z-score was inactive: -0.617.
As to `CC(=O)NC(SC(=S)N(CC(C)C)CC(C)C)C(Cl)(Cl)Cl` (stereo not drawn), where the note is “at 20 µM unless noted”, the z-score was inactive: 1.06.
On the same count and under the same terms, with `Cc1ccc(OP(=O)(Nc2ccccn2)Oc2ccc(C)cc2)cc1` the figure was inactive: 1.67.
Regarding `Cc1ccccc1OP(=O)(Nc1ccccn1)Oc1ccccc1C`, the z-score (at 20 µM unless noted) is inactive: -0.404.
On to `CN(C)C(=O)Oc1noc2ccccc12`, for which the z-score (at 20 µM unless noted) was inactive: -0.617.
Still for that read-out and setting: with `CCCCCOc1ccc(NP(C)(=O)Oc2ccc(Cl)cc2Cl)cc1` (stereo not drawn) the figure was inactive: 0.649; with `CP(=O)(Nc1ccccc1)Oc1ccc(F)cc1` (stereo not drawn), inactive: -1.09 [at 50 µM]; with `c1ccc(-c2nn[nH]n2)c(-c2nn[nH]n2)c1`, inactive: 1.53.
On the same count and under the same terms, the result for `Cc1ccc(NP(=O)(Oc2cccc(C)c2)Oc2cccc(C)c2)nc1` reads inactive: 0.581; that for `CCOC(=O)NC(Sc1ccccc1)C(Cl)(Cl)Cl` (stereo not drawn), inactive: -0.388.
As to `O=C(NC1CCS(=O)(=O)C1)NP(=S)(Oc1ccccc1)Oc1ccccc1` (stereo not drawn), the z-score (at 20 µM unless noted) is inactive: -0.556.
As to `CCNC(=S)/N=C(\N)N[N+](=O)[O-]`, the z-score (at 20 µM unless noted) was inactive: -0.278.
Still for that read-out and setting: with `COc1ccc(OP(C)(=O)Nc2ccc(SC(F)(F)F)cc2)cc1` (stereo not drawn) the figure was inactive: 0.0892.
Take `CCOC(=O)c1ccc(NP(C)(=O)Oc2ccc(F)cc2)cc1` (stereo not drawn): the z-score (at 20 µM unless noted) is inactive: 0.303.
As to `O=C(OCCN1CCN(CCOCc2ccccc2)CC1)C(O)(c1ccccc1)c1ccccc1`, the z-score (at 20 µM unless noted) is inactive: 1.29.
Consider `C[C@@H]1C=CCP(=O)(Oc2ccccc2)O1` (stereo partly drawn), for which, where the note is “at 20 µM unless noted”, the z-score is inactive: 0.99.
Still for that read-out and setting: the result for `C[C@H]1OP(=O)(Oc2ccccc2)C[C@@H]2O[C@@H]21` (stereo partly drawn) reads inactive: -0.0115.
